Test [1] concerns the target α1β2γ2 GABAA receptor (α1 subunit) (Rattus norvegicus, UniProt P18508+P62813+P63138). Further details: gene Gabra1.
Test [2] deals with T1, α1β2γ2 GABAA receptor (α1 subunit), CYS mutant (Rattus norvegicus, UniProt P18508+P62813+P63138, P62813:F91C).
T1 construct: gene Gabra1

Chains of the proteins cited; added tags and fusions are not shown. Lines headed by an entry give the natural chain unless they say otherwise; changes in a name come on top. Residues count along the entry.
UniProt P18508, 39-466: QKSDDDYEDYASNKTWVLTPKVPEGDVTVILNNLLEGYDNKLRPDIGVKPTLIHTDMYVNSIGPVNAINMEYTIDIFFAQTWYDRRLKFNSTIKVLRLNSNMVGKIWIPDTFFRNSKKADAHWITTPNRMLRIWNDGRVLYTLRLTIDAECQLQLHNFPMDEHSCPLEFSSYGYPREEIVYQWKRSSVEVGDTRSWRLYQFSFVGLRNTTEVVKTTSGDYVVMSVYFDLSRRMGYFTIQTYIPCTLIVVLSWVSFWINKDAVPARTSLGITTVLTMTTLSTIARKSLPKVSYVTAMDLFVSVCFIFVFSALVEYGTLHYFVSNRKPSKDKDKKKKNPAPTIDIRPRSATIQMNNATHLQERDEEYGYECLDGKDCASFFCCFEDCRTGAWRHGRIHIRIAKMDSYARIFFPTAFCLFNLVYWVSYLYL
UniProt P62813, 28-455: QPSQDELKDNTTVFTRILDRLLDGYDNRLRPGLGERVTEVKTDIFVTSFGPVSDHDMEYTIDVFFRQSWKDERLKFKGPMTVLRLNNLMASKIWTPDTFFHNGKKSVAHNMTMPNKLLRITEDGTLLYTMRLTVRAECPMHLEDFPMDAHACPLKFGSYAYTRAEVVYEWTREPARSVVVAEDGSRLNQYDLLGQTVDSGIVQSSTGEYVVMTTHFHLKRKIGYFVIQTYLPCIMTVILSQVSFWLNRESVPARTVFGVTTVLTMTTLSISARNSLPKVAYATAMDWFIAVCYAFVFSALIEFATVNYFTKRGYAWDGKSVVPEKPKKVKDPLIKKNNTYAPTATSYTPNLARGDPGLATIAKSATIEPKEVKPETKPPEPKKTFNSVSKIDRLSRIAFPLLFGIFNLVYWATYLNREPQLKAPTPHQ
UniProt P62813, 28-455 F91C: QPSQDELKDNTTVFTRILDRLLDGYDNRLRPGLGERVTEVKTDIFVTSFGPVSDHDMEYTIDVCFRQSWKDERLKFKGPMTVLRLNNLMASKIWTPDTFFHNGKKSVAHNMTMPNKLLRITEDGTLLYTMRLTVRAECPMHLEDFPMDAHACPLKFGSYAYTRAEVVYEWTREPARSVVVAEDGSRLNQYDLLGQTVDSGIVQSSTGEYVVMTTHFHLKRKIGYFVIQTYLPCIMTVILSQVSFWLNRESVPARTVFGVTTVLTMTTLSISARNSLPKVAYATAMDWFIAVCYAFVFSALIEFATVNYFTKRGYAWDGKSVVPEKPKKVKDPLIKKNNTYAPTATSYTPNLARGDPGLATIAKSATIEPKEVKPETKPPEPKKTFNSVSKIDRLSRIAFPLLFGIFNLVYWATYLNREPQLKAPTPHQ
UniProt P62813, 28-455 F91A: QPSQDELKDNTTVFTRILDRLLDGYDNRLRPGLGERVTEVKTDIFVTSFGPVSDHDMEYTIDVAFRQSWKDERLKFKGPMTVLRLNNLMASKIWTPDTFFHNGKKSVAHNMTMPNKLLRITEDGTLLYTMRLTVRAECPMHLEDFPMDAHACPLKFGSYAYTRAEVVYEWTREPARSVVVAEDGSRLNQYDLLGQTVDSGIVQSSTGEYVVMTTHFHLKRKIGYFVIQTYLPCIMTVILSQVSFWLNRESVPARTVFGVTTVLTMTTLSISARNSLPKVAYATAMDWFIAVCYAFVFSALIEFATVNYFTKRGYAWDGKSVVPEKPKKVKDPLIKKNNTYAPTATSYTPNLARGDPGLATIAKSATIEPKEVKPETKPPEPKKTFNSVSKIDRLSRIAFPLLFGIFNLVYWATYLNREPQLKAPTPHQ
UniProt P63138, 26-474: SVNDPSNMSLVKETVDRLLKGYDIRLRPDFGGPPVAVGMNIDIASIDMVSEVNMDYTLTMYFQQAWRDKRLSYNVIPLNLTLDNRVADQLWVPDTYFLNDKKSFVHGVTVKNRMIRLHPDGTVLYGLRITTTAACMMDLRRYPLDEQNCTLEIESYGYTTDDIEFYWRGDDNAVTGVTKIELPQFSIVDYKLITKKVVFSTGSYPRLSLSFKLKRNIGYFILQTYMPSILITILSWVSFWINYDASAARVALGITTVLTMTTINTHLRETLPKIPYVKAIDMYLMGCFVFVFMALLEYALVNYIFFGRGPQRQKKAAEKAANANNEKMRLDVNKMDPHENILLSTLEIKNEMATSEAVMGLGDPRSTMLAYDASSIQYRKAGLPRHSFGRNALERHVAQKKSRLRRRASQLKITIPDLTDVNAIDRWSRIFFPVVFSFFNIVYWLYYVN

Test [3] addresses α1β2γ2 GABAA receptor (α1 subunit), ALA mutant (Rattus norvegicus, UniProt P18508+P62813+P63138, P62813:F91A). Further details: gene Gabra1.

In the case of `CCN(CC)CCN1C(=O)CN=C(c2ccccc2F)c2cc(Cl)ccc21` [FLU, flurazepam], the “whole-cell patch clamp and single-channel recording; potentiation of spontaneous” value is “Relative enhancement of spontaneous activity by FLU” in test [1]; “FLU produced a similar effect on the activity of the WT and CYS mutants by significantly increasing both time constants” in test [2]. In addition, the “whole-cell patch clamp; potentiation of spontaneous and GABA-evoked currents at” value in test [3] is “potentiation in both pretreatment and co-application protocols was significant”.

The record behind these values is paper PMC6121034 (Frontiers in Cellular Neuroscience, 2018).
